{
  "source": "patent US11629179B2",
  "about": "“TWEAK-receptor agonists for use in combination with immunotherapy of a cancer” (Stichting Het Nederlands Kanker Instituut - Antoni van …, priority 2018, dated 2023)",
  "tested_on": "melanoma cells",
  "test": "TNF dose-titration on sgCtrl or sgTRAF2 melanoma cells",
  "type": "cell-based, human",
  "experimental": "1.2×10^5 tumor cells were seeded per well in 12-well culture plates (Greiner). CD8 T cells were admixed in serial dilutions (two-fold, starting at a 1:1 ratio). After 24 hours, T cells were washed away. After a further 4 days, plates were fixed and stained for 1 hour using a crystal violet solution containing 0.1% crystal violet (Sigma) and 50% methanol (Honeywell). For quantification, remaining crystal violet was solubilized in 10% acetic acid (Sigma). Absorbance of this solution was measured on an Infinite 200 Pro spectrophotometer (Tecan) at 595 nm. In select experiments, tumor viability data was assessed with CellTiter-Blue (Promega) following manufacturer's instructions. In indicated experiments, 1 uM of birinapant (Selleck Chemicals) in DMSO (Sigma) was added during co-cultures. For Incucyte (Incucyte Zoom, Essen Bioscience) experiments, 5×10^3 tumor cells were seeded per well in 96-well culture plates (Greiner). CD8 T cells were admixed in indicated ratios and a Caspase-3/7 dye (Essen Bioscience) was added. Growth of these co-cultures was followed for 48 hours. In indicated experiments a neutralizing TNF antibody or isotype control (R&D Systems, AF375 and Cell Signaling Technology, 7321 and 3900 respectively) was added at a concentration of 1 μg per ml. […]",
  "note": "“Also recorded” adds a separate entry of the source.",
  "data": [
    {"substance": "TNF: recombinant TNF (Peprotech)", "values": [
      {"measurement": "tumor cell death upon TNF treatment", "setting": "TRAF2-inactivated (sgTRAF2) cells (FIG. 2C)", "value": "tumor cells died at picogram TNF concentrations"},
      {"measurement": "tumor cell death upon TNF treatment", "setting": "control (wildtype, sgCtrl) cells (FIG. 2C)", "value": "even high concentrations of TNF were unable to cause control tumor cells to die; also recorded: hardly displayed any sensitivity to TNF"}
    ]}
  ]
}
